Reference: patent publication US8258151B2, “3-aminoimidazo [1,2-A] pyridine derivatives as SGLT inhibitors” (Merck Patent GmbH, priority 2006, dated 2012)

Sequences of proteins named here, by UniProt entry; tags and fusion partners are left off.
UniProt P13866, whole entry: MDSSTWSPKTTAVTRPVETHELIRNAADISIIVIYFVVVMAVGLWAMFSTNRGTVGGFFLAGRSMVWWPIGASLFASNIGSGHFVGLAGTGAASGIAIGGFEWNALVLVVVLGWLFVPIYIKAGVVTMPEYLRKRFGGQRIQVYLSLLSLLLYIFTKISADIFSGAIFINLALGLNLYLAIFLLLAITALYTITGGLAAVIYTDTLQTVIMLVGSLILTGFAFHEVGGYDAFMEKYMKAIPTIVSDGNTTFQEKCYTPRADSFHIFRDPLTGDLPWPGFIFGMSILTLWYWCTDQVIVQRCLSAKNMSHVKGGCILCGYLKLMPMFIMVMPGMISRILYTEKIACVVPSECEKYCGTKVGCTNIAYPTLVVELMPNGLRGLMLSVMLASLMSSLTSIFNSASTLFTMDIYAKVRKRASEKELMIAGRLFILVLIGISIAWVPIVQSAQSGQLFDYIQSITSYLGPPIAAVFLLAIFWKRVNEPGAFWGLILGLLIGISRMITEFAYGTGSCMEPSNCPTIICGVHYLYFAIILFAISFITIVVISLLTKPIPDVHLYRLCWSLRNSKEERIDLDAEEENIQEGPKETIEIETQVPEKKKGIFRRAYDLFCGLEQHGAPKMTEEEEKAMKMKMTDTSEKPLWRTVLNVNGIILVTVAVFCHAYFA
UniProt P31639, whole entry: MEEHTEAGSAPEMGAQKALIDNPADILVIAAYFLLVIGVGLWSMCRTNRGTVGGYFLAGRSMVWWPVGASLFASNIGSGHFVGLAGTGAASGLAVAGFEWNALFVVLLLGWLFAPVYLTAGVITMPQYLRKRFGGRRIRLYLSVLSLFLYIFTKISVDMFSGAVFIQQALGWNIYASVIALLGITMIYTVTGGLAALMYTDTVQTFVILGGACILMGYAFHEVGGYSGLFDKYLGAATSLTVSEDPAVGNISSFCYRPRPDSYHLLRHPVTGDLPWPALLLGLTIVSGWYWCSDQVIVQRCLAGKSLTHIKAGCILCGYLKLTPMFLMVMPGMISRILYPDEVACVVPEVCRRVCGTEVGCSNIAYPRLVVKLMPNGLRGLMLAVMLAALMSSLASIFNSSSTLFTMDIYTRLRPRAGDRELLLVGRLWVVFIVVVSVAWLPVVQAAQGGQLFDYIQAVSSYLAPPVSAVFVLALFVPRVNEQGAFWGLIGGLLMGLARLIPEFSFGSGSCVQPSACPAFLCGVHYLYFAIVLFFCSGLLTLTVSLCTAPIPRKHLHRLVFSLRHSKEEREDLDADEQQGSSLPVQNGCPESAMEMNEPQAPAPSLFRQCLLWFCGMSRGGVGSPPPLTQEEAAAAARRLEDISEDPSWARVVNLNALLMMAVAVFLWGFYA

Experiments:
SGLT1 = SGLT1 (Homo sapiens, UniProt P13866); experiment: SGLT1 activity measurement: 14C-AMG uptake in BHK cells transfected with SGLT1; settings: read-out: SGLT1-IC50, AMG 50 μM, 37° C., 90 min
Description: (§1) The compounds can be tested on their SGLT inhibition properties by means of BHK cells expressing SGLT1 and SGLT2. The production of the cells and the testing can be carried out as described below.
To construct the SGLT1 expression vector (KL225), the SLC5A1 gene (homologous to NM_000343) was amplified from a cDNA library using standard PCR technology and cloned over NheI/XhoI sites into pcDNA3.1 expression vector (Invitrogen) containing neomycin as a selection marker. In this vector, transcription uses the enhancer/promoter of human cytomegalovirus.
The final vector KL225 together with an additional vector containing a dihydrofolate reductase gene as a selection marker was introduced into cells. […]
(§2) BHK cells (transfected with SGLT1 or SGLT2) were seeded into 96-well microtitre plates (Cultureplates, Perkin Elmer). […] The radioactivity was counted in a Topcount microplate scintillation counter (Perkin Elmer). The non-specific uptake was determined in sodium-free assay buffer (266 mM sucrose, 2 mM KCl, 1 mM CaCl2, 1 mM MgCl2, 10 mM HEPES, 5 mM Tris, adjusted with 1 M KOH to pH 7.4).

SGLT2 = SGLT2 (Homo sapiens, UniProt P31639); experiment: SGLT2 activity measurement: 14C-AMG uptake in BHK cells transfected with SGLT2; settings: read-out: SGLT2-IC50, AMG 2 mM, 37° C., 90 min
Description: as §1
To construct the SGLT2 expression vector (KL224), the SLC5A2 gene (homologous to NM_003041) was amplified from a cDNA library using standard PCR technology and cloned over NheI/XhoI sites into PCI-neo expression vector (Promega) containing neomycin as a selection marker. In this vector, transcription used the enhancer/promoter of human cytomegalovirus and the SV40 polyadenylation signal.
The final vector KL224 together with an additional vector containing a dihydrofolate reductase gene as a selection marker was introduced into cells. […]
as §2

SMILES: Cc1cccc(C)c1Nc1c(-c2c(C)cc(OS(C)(=O)=O)cc2OCC(N)=O)nc2ccccn12
- IC50 (SGLT1): > 10 µM
- IC50 (SGLT2): 10 to 1000 nM
